Target: dopamine D2L receptor (hD2L) (Homo sapiens, UniProt P14416)
Test: radioligand saturation binding

Chains of the proteins cited; added tags and fusions are not shown. Lines headed by an entry give the natural chain unless they say otherwise; changes in a name come on top.
UniProt P14416, whole entry: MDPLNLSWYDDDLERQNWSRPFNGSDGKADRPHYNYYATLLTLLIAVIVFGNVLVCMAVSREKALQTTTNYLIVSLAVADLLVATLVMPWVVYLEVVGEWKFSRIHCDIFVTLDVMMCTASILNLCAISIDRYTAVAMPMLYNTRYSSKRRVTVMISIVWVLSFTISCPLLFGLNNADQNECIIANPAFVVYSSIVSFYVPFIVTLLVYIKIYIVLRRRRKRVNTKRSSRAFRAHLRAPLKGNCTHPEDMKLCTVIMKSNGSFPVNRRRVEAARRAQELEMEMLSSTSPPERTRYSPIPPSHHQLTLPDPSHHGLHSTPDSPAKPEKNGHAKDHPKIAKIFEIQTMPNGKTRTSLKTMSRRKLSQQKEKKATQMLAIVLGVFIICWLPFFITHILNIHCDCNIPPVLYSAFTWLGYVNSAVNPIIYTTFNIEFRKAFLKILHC

`CCN1CCC[C@H]1CNC(=O)c1c(O)c(Cl)cc(Cl)c1OC` [[^3H]raclopride] was tested. Which Kd did it give?
The Kd was 1.6 ± 0.1 nM.

Reference: article PMC2783604 (Synapse (New York, N.Y.), 2009)
